One compound from ChEMBL document CHEMBL1148435, “N,N-dialkyl-4-[(8-azabicyclo[3.2.1]-oct-3-ylidene)phenylmethyl]benzamides, potent, selective delta opioid agonists” (Bioorg Med Chem Lett, 2004) can be followed below.

The target of assay [1] is T1, Delta-type opioid receptor (Homo sapiens, UniProt P41143). The assay is described as follows: Effective concentration against stimulation of [35S]GTP-gamma-S, binding in CHO cells transfected with the human opioid receptor delta 1. For orientation: Binding of GTPγS marks nucleotide exchange on a G protein.
Assay [2] concerns the target T1, Delta-type opioid receptor. As to the kind of experiment: Binding affinity for delta opioid receptor.
Another assay concerns the target Mu-type opioid receptor (Homo sapiens, UniProt P35372). The assay is described as follows: Binding affinity for mu opioid receptor.

By EC50 is commonly meant the concentration needed to bring the measured effect to its halfway point. The Ki is the equilibrium dissociation constant of an inhibitor or competing ligand from its target. A lower Ki goes with tighter binding. Regarding `CCN(CC)C(=O)c1ccc(N(c2ccccc2)C2CCNCC2)cc1`, it took 458 nM to reach a half-maximal effect in assay [1] (EC50). Also, the figures for the Ki (in assay [2]; on Mu-type opioid receptor) were 35 nM and over 10 µM, respectively.
